The list shows a part of the results, in another mix than the full data. Activity calls are given as the source filed them.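 The calls were made as follows: active = inhibition of the luminescence signal of 40% or more relative to plate controls, in a single-dose primary screen at 18.75 µM; inactive = the rest.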

The nature of this assay: blockers of HIF-2a driven luciferase – luminescence, 786-0 RCC cells, primary screen (AID 624352). The note with it: 786-0 RCC cells HIF-2a reporter, overnight, at 18.8 µM, stronger effect = higher value.
One may read the inhibition as the relative decrease from the control value, in per cent. For the compound `CSc1ccc(Nc2c([N+](=O)[O-])cc([N+](=O)[O-])cc2[N+](=O)[O-])cc1`, the inhibition was inactive: 2.77%.
To `O=C(OC1CN2CCC1CC2)c1cccc([N+](=O)[O-])c1` (stereo not drawn) belongs inactive: 9.48%; to `CCOC(=O)c1ccc(NC(=O)C(C)(CCl)SC)cc1` (stereo not drawn), inactive: -88.9%; to `CCC(C)N(CC(C)C)C(=S)SC(NC(C)=O)C(Cl)(Cl)Cl` (stereo not drawn), inactive: 12.2%.
In the case of `COC(=O)C1(C)COP(=O)(N2CCCC2)OC1` (stereo not drawn) it was inactive: 10.2%; in that of `COP1(=S)c2c(C)nn(CCC#N)c2N=C(c2ccc(F)cc2)N1C` (stereo not drawn), inactive: 7.28%; in that of `O=C(O)C(=O)c1ccc(N(CCCl)CCCl)cc1`, inactive: -1.77%.
To `O=C(Nc1ccncc1[N+](=O)[O-])c1ccc([N+](=O)[O-])cc1[N+](=O)[O-]` belongs inactive: 6.62%.
On to `O=C(COc1ccccc1)OC1CN2CCC1CC2` (stereo not drawn), for which the inhibition was inactive: 8.2%.
To `CCOC(=O)Nc1cccc([As](=O)(O)O)c1` belongs inactive: 15.1%; to `Cc1cc(SC(NC=O)C(Cl)(Cl)Cl)ncn1` (stereo not drawn), inactive: 14.7%; to `O=P(Nc1ccccn1)(c1cccc2ccccc12)c1cccc2ccccc12`, inactive: 18.4%.
In the case of `O=[N+]([O-])c1ccc(Nc2ccc(Oc3ccc([N+](=O)[O-])cc3[N+](=O)[O-])cc2)c([N+](=O)[O-])c1` it was inactive: -4.11%; in that of `O=C(O)C(O)c1ccc(N(CCCl)CCCl)cc1` (stereo not drawn), inactive: 11.6%; in that of `CCOC(=O)Nc1ccc([As](=O)(O)O)c(O)c1`, inactive: 12.8%.
To `CC1CCNP(=O)(N(CCCl)CCCl)O1` (stereo not drawn) belongs inactive: 13.6%; to `COP(=O)(OC)N1CC1c1ccccc1` (stereo not drawn), inactive: -5.98%.
Regarding `Cc1cc(SC(NC(=O)c2ccccc2)C(Cl)(Cl)Cl)nc(C(C)C)n1` (stereo not drawn), the inhibition is inactive: 11.6%.
To `CCCCOc1ccc(C(=O)NCC2(N3CCCCC3)CCCCC2)cc1OC` belongs inactive: 14.2%.
For the compound `ClCCSc1nnc(-c2cccnc2)o1`, the inhibition is inactive: -47.4%.
To `CC(C)c1ccc(OP(=O)(Nc2ccccn2)Oc2ccccc2F)cc1` (stereo not drawn) belongs inactive: 19.2%.
In the case of `COC(=O)C1(C)COP(=O)(N2CCCCCC2)OC1` (stereo not drawn) it was inactive: 11.8%.
To `O=[N+]([O-])c1cc([N+](=O)[O-])c(-c2ccn[nH]2)s1` belongs inactive: -0.168%; to `CCN(CC)C(=S)SC(NC=O)C(Cl)(Cl)Cl` (stereo not drawn), inactive: -0.204%; to `O=C(OC1CN2CCC1CC2)c1cccc2[nH]cnc12` (stereo not drawn), inactive: 25.9%.
With `CC(C)NC(=O)NP(=O)(Oc1ccccc1)Oc1ccccc1`, the inhibition was inactive: 8.76%.
To `COc1cc(C(=O)NCC2(N3CCOCC3)CCCCC2)ccc1OCC(C)C` belongs inactive: 9.64%; to `O=[N+]([O-])c1ccc(-c2cc([N+](=O)[O-])c(O)c([N+](=O)[O-])c2)cc1`, inactive: -20.3%; to `O=[As](O)(c1ccc(O)cc1)c1ccccc1O`, inactive: 26.1%.
To `C[As](=O)(O)c1cccc(C(=O)O)c1` belongs inactive: 15.9%; to `Cc1ccc(OP(=O)(Nc2ccc([N+](=O)[O-])cn2)Oc2ccc(C)cc2)cc1`, inactive: 11.7%; to `[N-]=[N+]=NC1CCCCC1NC(=O)c1cc([N+](=O)[O-])cc([N+](=O)[O-])c1` (stereo not drawn), inactive: 1.16%.
Take `Cc1ccc2nc3c(c(C)c2c1)CC(C(Cl)Cl)S3` (stereo not drawn): the inhibition is inactive: -234%.
To `O=[N+]([O-])c1cc(Oc2ccc([N+](=O)[O-])cc2C(F)(F)F)cc([N+](=O)[O-])c1` belongs inactive: 9.11%.
To `COc1ccc(N/C(=N/P(=O)(N2CCOCC2)N2CCOCC2)N2CCOCC2)cc1` belongs inactive: 26.1%; to `Cc1c2c(nc3ccccc13)SC(C(Cl)Cl)C2` (stereo not drawn), inactive: -75.7%; to `Cc1cc(=O)[nH]c(N[N+](=O)[O-])n1`, inactive: 8.97%.
In the case of `O=C(OC1CN2CCC1CC2)C12CC3CC(CC(C3)C1)C2` (stereo not drawn) it was inactive: 14.5%.
For `O=P1(N(CCCl)CCCl)Nc2ccccc2N1`, the inhibition is inactive: -31.6%.
To `O=P1(N(CCCl)CCCl)OCCCN1CCCl` (stereo not drawn) belongs inactive: -6.55%; to `COc1cc(I)ccc1[As](=O)(O)O`, inactive: 15.8%; to `COc1ccc2nc(NP(=O)(c3ccccc3)c3ccccc3)sc2c1`, inactive: 22.1%.
In the case of `Cc1ccc(NCCc2c([N+](=O)[O-])cc([N+](=O)[O-])cc2[N+](=O)[O-])cc1` it was inactive: -138%.
As to `Nc1cccc2c([As](=O)(O)O)cccc12`, the inhibition is inactive: 15.2%.
In the case of `CCCOP(=S)(Nc1nc(N)cc(=O)[nH]1)OCCC` it was inactive: 3.31%.
In the case of `CCOP(=O)(Nc1cccc2ccccc12)OCC` it was inactive: 15.2%.
With `COc1cc(C2NCCC3(OCCO3)C2(C)C)cc(OC)c1OC` (stereo not drawn), the inhibition is inactive: -4.85%.
For `O=C(OC1CN2CCC1CC2)c1ccc(Cl)cc1` (stereo not drawn), the inhibition is inactive: 12.8%.
To `CS(=O)(=O)c1ccc(Cl)c(NC(=O)COC(=O)C(O)(c2ccccc2)c2ccccc2)c1` belongs inactive: 10.4%.
In the case of `COc1cc(C(=O)NCC2(N3CCOCC3)CCCCC2)cc(Cl)c1OC(C)C` it was inactive: 7.62%; in that of `O=[As](O)(O)c1cccnc1`, inactive: 6.14%; in that of `O=[As](O)(c1cccc(O)c1)c1cccc(O)c1`, inactive: 9.86%.
To `Cc1cccc(OCC(=O)OC2CN3CCC2CC3)c1` (stereo not drawn) belongs inactive: 5.49%; to `NC(=O)Nc1ccc([As](=O)(O)O)cc1`, inactive: -3.47%.
For the compound `CCOP1(=S)c2c(C)nn(CCC#N)c2N=C(c2ccc(F)cc2)N1C` (stereo not drawn), the inhibition was inactive: 17.7%.
In the case of `CN(C(=O)Cc1ccccc1)[C@@H]1CC[C@]2(CCCO2)C[C@H]1N1CCCC1` it was inactive: 8.25%; in that of `N#CCCN(C(=O)COC(=O)C(O)(c1ccccc1)c1ccccc1)c1ccc(F)cc1`, inactive: 5.66%.
In the case of `CN(C(=O)Cc1ccc(Cl)c(Cl)c1)[C@H]1CC[C@@]2(CCCO2)C[C@@H]1N1CCCC1` it was inactive: -4.7%; in that of `CN(C)C(=O)c1cc([N+](=O)[O-])cc2c1-c1c(cc([N+](=O)[O-])cc1[N+](=O)[O-])C2=O`, active: 74.2%.
In the case of `O=[N+]([O-])c1ccc2c(c1)nnn2O` it was inactive: 7.83%; in that of `O=P(Nc1nccs1)(c1ccccc1)c1nc2ccccc2s1` (stereo not drawn), inactive: -39.5%.
With `O=P(Nc1nccs1)(Oc1ccccc1)Oc1ccccc1`, the inhibition was inactive: 15.7%.
In the case of `CCOP1(=S)c2c(C)nn(CCC#N)c2N=C(c2ccccc2F)N1C` (stereo not drawn) it was inactive: 2.38%.

The record behind these values is PubChem BioAssay AID624352 (Sanford-Burnham Center for Chemical Genomics, 2012).
